Results from publication PMC12192683.
pKd: −log10 of the molar value.

Amino acid sequences for entries named in this document (tags omitted). Residues count along the entry.
UniProt Q07954, 20-4544: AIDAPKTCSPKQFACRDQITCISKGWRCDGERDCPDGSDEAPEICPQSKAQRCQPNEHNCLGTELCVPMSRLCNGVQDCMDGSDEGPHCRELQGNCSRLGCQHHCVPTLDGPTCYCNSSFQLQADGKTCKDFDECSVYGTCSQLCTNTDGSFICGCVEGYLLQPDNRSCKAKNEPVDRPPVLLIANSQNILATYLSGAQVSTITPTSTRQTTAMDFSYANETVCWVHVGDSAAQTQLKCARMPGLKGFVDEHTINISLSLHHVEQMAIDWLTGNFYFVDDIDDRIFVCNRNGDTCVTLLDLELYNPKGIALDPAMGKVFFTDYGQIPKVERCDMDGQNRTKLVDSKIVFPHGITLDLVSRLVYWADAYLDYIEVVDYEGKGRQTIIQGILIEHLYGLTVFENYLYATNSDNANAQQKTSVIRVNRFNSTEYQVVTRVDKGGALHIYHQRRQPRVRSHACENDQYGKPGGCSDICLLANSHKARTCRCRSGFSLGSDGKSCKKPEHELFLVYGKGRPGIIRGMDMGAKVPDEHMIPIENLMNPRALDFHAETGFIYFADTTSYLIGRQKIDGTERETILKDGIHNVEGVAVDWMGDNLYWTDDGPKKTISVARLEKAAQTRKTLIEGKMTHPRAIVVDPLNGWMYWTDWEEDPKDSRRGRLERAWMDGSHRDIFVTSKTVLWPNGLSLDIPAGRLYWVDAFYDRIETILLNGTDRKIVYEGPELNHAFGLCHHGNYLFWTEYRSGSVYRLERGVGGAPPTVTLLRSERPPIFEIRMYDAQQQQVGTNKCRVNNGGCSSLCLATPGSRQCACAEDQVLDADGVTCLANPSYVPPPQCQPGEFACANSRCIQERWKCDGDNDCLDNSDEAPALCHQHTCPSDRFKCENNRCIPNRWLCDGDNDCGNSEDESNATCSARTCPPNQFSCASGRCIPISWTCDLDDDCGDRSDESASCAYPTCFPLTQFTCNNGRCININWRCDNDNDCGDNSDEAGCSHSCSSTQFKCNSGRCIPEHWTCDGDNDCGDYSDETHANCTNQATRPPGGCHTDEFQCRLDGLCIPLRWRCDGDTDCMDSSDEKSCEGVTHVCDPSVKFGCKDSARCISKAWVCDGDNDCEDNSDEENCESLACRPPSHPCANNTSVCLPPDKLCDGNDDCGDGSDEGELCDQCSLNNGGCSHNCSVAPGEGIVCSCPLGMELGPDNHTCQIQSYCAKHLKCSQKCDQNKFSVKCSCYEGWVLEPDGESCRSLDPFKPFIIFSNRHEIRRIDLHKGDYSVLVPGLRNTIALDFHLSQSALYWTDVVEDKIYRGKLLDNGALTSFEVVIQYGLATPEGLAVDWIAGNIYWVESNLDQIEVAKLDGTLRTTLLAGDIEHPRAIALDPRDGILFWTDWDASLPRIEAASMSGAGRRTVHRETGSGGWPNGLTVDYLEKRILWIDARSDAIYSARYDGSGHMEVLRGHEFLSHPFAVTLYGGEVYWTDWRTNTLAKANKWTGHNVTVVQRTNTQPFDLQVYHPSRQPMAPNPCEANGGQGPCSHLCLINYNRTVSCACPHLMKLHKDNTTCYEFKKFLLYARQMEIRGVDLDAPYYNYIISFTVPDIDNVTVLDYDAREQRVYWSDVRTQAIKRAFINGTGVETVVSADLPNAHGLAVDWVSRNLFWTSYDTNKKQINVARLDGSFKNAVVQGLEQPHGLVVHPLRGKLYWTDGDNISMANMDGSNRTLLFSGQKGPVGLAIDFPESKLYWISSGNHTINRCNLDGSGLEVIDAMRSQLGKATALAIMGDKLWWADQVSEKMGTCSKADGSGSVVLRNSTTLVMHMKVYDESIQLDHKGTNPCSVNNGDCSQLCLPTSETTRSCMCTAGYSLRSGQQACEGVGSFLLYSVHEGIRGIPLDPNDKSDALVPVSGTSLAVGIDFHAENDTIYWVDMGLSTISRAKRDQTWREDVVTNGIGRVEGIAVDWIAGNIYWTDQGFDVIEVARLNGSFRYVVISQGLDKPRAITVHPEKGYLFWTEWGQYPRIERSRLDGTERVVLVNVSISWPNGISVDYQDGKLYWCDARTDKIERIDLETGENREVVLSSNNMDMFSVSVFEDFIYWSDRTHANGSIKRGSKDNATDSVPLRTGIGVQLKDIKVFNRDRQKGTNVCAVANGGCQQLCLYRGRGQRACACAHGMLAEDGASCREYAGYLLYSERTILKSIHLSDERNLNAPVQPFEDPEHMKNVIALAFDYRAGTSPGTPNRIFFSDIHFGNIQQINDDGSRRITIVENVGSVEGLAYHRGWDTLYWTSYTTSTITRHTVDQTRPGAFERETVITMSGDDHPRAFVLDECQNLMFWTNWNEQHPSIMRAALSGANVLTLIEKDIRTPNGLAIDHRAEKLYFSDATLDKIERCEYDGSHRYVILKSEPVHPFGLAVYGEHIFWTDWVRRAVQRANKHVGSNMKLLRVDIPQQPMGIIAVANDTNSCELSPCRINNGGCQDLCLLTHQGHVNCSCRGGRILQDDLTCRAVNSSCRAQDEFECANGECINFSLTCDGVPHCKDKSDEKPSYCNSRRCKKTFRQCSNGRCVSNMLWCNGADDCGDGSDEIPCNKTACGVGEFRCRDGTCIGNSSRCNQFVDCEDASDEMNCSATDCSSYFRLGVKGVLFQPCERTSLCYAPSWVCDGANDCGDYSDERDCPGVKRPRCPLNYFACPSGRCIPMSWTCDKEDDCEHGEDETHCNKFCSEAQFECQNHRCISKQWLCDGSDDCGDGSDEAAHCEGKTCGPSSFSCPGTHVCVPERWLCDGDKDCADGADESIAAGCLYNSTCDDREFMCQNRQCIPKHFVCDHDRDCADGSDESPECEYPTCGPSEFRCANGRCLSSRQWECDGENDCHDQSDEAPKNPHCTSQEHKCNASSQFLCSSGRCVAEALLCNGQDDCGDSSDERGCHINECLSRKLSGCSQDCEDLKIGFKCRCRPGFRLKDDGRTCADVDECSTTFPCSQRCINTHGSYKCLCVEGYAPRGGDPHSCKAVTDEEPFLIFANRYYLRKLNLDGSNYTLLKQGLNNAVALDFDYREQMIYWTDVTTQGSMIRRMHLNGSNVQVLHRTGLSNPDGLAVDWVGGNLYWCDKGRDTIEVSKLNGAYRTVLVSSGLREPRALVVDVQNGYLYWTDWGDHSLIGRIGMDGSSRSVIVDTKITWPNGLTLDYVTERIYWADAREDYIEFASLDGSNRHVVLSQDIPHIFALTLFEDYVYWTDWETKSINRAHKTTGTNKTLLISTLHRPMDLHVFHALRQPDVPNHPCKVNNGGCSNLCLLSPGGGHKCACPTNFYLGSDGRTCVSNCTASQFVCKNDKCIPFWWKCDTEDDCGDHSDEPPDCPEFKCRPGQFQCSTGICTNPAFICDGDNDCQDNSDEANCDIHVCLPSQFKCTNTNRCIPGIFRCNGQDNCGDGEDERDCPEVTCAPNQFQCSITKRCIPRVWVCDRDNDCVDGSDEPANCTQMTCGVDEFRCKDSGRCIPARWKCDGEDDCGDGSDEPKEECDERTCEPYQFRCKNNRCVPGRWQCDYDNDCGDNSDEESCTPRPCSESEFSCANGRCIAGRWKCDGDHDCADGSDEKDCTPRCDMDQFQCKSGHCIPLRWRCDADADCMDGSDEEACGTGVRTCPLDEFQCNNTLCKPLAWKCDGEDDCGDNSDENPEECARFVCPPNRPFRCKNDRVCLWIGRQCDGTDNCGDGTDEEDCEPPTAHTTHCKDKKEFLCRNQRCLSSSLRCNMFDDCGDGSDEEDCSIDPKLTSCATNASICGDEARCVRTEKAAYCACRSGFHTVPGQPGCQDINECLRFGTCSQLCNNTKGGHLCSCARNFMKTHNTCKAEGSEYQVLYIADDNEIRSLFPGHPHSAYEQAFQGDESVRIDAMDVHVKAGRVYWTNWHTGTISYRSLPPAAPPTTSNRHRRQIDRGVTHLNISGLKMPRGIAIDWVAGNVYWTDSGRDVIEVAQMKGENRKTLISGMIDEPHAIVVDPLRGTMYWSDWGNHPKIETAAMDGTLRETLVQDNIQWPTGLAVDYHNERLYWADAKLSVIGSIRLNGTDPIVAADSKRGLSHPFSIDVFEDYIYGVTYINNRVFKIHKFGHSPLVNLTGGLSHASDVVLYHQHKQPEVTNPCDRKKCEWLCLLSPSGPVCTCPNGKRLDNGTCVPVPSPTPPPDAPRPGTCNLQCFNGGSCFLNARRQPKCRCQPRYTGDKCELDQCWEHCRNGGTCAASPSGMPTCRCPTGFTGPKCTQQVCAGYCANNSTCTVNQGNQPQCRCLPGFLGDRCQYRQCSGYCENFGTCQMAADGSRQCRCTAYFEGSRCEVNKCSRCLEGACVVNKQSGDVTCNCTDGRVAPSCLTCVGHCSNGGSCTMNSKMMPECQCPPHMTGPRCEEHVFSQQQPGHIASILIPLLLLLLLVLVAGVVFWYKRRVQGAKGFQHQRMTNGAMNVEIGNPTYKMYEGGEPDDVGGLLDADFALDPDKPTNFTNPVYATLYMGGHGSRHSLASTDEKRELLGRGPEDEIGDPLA
UniProt Q9BYF1, 18-740: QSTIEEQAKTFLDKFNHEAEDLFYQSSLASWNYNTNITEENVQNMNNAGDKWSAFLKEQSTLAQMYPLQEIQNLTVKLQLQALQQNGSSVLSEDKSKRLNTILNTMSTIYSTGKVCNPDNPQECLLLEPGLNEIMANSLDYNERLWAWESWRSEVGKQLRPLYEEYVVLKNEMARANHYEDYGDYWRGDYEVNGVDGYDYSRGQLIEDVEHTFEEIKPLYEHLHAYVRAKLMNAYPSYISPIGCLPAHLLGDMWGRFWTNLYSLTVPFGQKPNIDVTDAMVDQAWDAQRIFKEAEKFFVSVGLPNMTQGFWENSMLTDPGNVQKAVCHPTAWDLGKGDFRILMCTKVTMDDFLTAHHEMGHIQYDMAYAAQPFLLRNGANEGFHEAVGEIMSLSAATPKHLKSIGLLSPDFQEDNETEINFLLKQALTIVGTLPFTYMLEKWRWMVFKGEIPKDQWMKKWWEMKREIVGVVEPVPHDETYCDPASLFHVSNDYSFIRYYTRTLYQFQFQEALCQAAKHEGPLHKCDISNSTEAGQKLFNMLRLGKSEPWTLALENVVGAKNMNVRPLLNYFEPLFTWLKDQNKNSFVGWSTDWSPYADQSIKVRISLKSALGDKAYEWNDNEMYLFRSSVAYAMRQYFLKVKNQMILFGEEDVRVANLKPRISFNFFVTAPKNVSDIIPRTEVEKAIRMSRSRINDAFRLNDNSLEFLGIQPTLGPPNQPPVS

Biological target: low-density lipoprotein receptor-related protein 1 (LRP1), full-length, purified from human placenta (human) (UniProt Q07954)
Experiment: SPR; Biacore 3000; receptor amine-coupled to CM5 chip; ligand flowed in HBS-P (0.01 M HEPES pH 7.4, 0.15 M NaCl, 0.005% P20) with 1 mM CaCl2, 10 ul/min, 25 C; kinetic fit to a 1:1 Langmuir model

With “Recombinant human angiotensin-converting enzyme two ectodomain (Gln18-Ser740) (from UniProt Q9BYF1 18-740) (domain or fragment)” as the substance, how does the pKd read?
The pKd was 7.36.

What about the koff of the same substance?
The koff was 0.00026 s⁻¹.

And the kon?
The kon was 5800 M⁻¹ s⁻¹.
